{"source": "patent EP0639380B1", "about": "“Cyclodextrin inclusion product of taxol, process for producing the same, and its use” (Ensuiko Sugar Refining Company, Limited, priority 1993, dated 1995)", "details": "70 min", "description": "098 g of hydroxyethyl-β-CD in which, of 21 hydroxyl groups contained in one β -CD molecule, an average of 1.6 groups are substituted through an ether bond with a hydroxyethyl group (hereinafter referred to as HE-β-CD) or 0.090 g of hydroxypropyl-β-CD in which, of 21 hydroxyl groups contained in one β -CD molecule, an average of 0.9 groups are substituted through an ether bond with a hydroxypropyl group (hereinafter referred to as HP-β -CD), and the volume of each solution was adjusted to 10 ml to prepare aqueous CD solutions of a concentration of 6 mM.\nTo the solutions were added 2 mg each of taxol, and the resulting mixtures were stirred at room temperature (20 to 25°C) at 5,000 r.p.m. As a control, 2 mg of taxol were added to 10 ml of water, and the resulting mixture was stirred at room temperature (20 to 25°C) at 5,000 r.p.m. […] 45µm, and the concentration of taxol contained in the filtrates was determined by highperformance liquid chromatography (HPLC).\nThen, 20 mg of taxol were added to the aqueous DM-β-CD solution, 2 mgof taxol to the aqueous HP-β-CD solution, and 1 mg each of taxol to the other aqueous CD solutions, and the resulting mixtures were stirred at room temperature (20 to 25°C) at 5,000 r.p.m. […] After 70 minutes of stirring, the solutions were passed through a filter with a pore diameter of 0.45µm, and the concentration of taxol contained in the filtrates was determined.", "data": [{"substance": "6-mono-O-maltosyl- γ -CD [G2-γ-CD]", "values": [{"measurement": "Solubility of Taxol", "value": 0.4, "unit": "µ g/ml"}, {"measurement": "Solubilty of Taxol", "value": 1.5, "unit": "µ g/ml"}]}]}
